Reference: paper PMC8190026, “Substitution of histidine 30 by asparagine in manganese superoxide dismutase alters biophysical properties and supports proliferation in a K562 leukemia cell line” (2021)

By UniProt entry, the sequences of proteins in these tests, tags left out. Residues count along the entry.
UniProt P41977, 25-218 limits assumed: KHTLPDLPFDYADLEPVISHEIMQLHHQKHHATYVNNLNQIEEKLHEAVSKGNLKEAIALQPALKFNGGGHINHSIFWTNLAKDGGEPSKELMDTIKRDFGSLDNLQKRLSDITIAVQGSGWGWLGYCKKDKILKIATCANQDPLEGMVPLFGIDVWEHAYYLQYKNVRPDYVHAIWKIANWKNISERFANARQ

Target: MnSOD-3WT (C. elegans MnSOD-3, manganese superoxide dismutase) (Caenorhabditis elegans, UniProt P41977)
Assay: […] GHz HFEPR and visible absorption spectroscopy
Settings: substrate analog binding at active-site Mn; 50 mM azide for HFEPR (Mn(II), partial binding), 100 mM azide for absorption (Mn(III), 10 mM Tris.Cl pH 8.0)

[N-]=[N+]=N
285 GHz HFEPR and visible absorption spectroscopy: azide binding to MnSOD was only partial resulting in a mixture of azide-free penta-coordinated centers
